Ab-14 light chain CDR variants: yeast mating affinities

The measurements come from Li et al. 2023 (doi:10.1038/s41467-023-39022-2) through the FLAb antibody collection.

Binding partner: SARS-CoV-2 spike HR2 peptide, sequence PDVDLGDISGINAS.

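The starting antibody came from a phage panning campaign against this peptide. These sequences belong to a second round, designed from the earlier measurements on random variants of the parent. Several design methods are mixed in this list. The scFvs were displayed on barcoded MATa yeast, the peptide on MATalpha yeast. Binding brings cells together so that they mate, and sequencing counts the barcode pairs among the diploids. Read counts were normalised to the haploid input and turned into Kd by a linear fit to BCL2-family pairs of known affinity, for each replicate. Mating was done six times.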

Ab-14 is the parent antibody, in scFv form: VH, then a 15-residue (Gly4Ser)3 linker, then VL. The heavy chain is unchanged in all variants.
VH: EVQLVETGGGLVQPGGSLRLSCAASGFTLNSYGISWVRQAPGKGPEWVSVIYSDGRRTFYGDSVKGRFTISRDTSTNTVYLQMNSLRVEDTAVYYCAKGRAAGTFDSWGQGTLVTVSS
VL: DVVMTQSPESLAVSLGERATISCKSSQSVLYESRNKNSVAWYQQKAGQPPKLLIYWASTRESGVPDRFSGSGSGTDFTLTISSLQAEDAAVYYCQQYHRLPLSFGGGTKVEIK

Positions count from residue 1 of the parent VL; S25I puts I in place of S. This list holds designs with at most six substitutions. Each Kd is an estimate from the mating assay, the geometric mean of the replicates in which the pair was seen; lower is stronger. An entry "nd" has no value in the source: the pair was not observed among the diploids in any replicate. This suggests poor binding but is not conclusive. The authors' rule: three or more of the six replicates give a measured affinity, fewer mean a poor binder.

Variant S25I/W56E/T59Q gave 1.2 nM (6 of 6 replicates; controls 0 of 18). Variant Q27L/Y31K/S33D showed 75 nM (6 of 6 replicates; controls 2 of 18). Variant V29T/Y31G showed 22 nM (5 of 6 replicates; controls 0 of 18). With S38N/V39I the result was 13 nM (6 of 6 replicates; controls 1 of 18). Variant S33R/R34V/R99Y gave nd (0 of 6 replicates; controls 0 of 18). With S25V/K36F/W56D the result was 1.5 nM (6 of 6 replicates; controls 1 of 18). Variant V29G/H98F/L102I gave 55 nM (5 of 6 replicates; controls 0 of 18). With S25L/K36S/W56H the result was 1.9 nM (6 of 6 replicates; controls 1 of 18).

Variant S25L/S26Q/V29E/W56N/E61L/S62D gave 830 pM (6 of 6 replicates; controls 1 of 18). Variant S25M/S26L/W56H/S62D/H98G showed 1.0 nM (6 of 6 replicates; controls 0 of 18). For N35A/K36G, the assay gave nd (0 of 6 replicates; controls 0 of 18). Variant S25L/N35C/S58T/H98P/L100P gave 270 nM (4 of 6 replicates; controls 1 of 18). With K24M/L30Y/Y31D/R34S/T59V the result was 3.2 nM (6 of 6 replicates; controls 0 of 18). With R34T/W56G/H98I the result was 1.7 nM (6 of 6 replicates; controls 1 of 18). With S25F/R34S/V39L the result was 17 nM (1 of 6 replicates; controls 0 of 18). Variant S25L/S26P/W56G/E61L showed 360 pM (6 of 6 replicates; controls 0 of 18).

With K24H/Q27P/S33D/W56N the result was 3.7 nM (6 of 6 replicates; controls 0 of 18). Variant S25L/S26A/Q27N/V29T/N35Q showed 9.3 nM (6 of 6 replicates; controls 2 of 18). With Q27M/W56A the result was 26 nM (6 of 6 replicates; controls 0 of 18). Variant S25L/W56D/Q95A/L102S gave nd (0 of 6 replicates; controls 0 of 18). For V29E/Y97E, the assay gave nd (0 of 6 replicates; controls 0 of 18). Variant S25M/S28G/Y31I/R34T/K36Q gave 28 nM (6 of 6 replicates; controls 0 of 18). With Q27M/S28G/V29Y/W56G the result was 1.7 nM (6 of 6 replicates; controls 1 of 18). With S25Q/L30G/W56M the result was 21 nM (1 of 6 replicates; controls 0 of 18).

For S25I/S26Q/R34L/K36Q/W56N/E61L, the assay gave 3.4 nM (6 of 6 replicates; controls 2 of 18). Variant S25V/V29M/L30P/W56N gave 870 pM (6 of 6 replicates; controls 2 of 18). With S26F/Q27F/V29E/L30P/Y31G/W56D the result was 1.3 nM (6 of 6 replicates; controls 0 of 18). Variant S103F gave 170 nM (4 of 6 replicates; controls 1 of 18). Variant K24M/V29Q/R34E/T59I/E61F gave 38 nM (1 of 6 replicates; controls 1 of 18). Variant L30T/S38P/W56S/H98S/L102C showed 330 nM (2 of 6 replicates; controls 1 of 18). Variant S25V/S26D/S38A/W56Q/A57G/S103H showed 810 pM (6 of 6 replicates; controls 0 of 18). Variant V39I/P101H showed nd (0 of 6 replicates; controls 0 of 18).

With S25L/W56D/T59Q/E61L the result was 550 pM (6 of 6 replicates; controls 1 of 18). Variant S25L/V29S/R34T/K36R gave 7.2 nM (6 of 6 replicates; controls 0 of 18). With S25L/V29E/W56N/T59Q/E61M the result was 290 pM (6 of 6 replicates; controls 0 of 18). With S25V/S26R/V29T/W56Q the result was 1.1 nM (6 of 6 replicates; controls 2 of 18). With S26P/L30V/Y31F/N35R/S62A the result was 190 nM (1 of 6 replicates; controls 0 of 18). For S26P/Q27F/L30Y/E32G/S33E/W56Q, the assay gave 4.2 nM (6 of 6 replicates; controls 1 of 18). With S25M/V29M/W56N the result was 440 pM (6 of 6 replicates; controls 0 of 18). For S25F/S28K/S33H/N35M/W56N, the assay gave 1.7 nM (6 of 6 replicates; controls 2 of 18).

For S25F/S26G/S28G/N35V/W56G, the assay gave 820 pM (6 of 6 replicates; controls 1 of 18). Variant S25F/Y31M/K36A/W56D gave 500 pM (6 of 6 replicates; controls 0 of 18). For S28E/V29F/S38N/S62F/L100Y, the assay gave 110 nM (1 of 6 replicates; controls 1 of 18). Variant L30Q/W56G gave 2.6 nM (6 of 6 replicates; controls 2 of 18). For S25L/V29D/S38A/W56N, the assay gave 440 pM (6 of 6 replicates; controls 0 of 18). With K24M/S26Q/Y31I/N37K/S62D/Y97A the result was nd (0 of 6 replicates; controls 0 of 18). With S25L/Y31G/E32Q/W56H/S62Q/Q96D the result was 1.8 nM (6 of 6 replicates; controls 0 of 18). With S25V/V29Q/W56N/T59Q/E61L the result was 2.2 nM (6 of 6 replicates; controls 0 of 18).

8 of these entries, quoted again:

For S25F/R34S/V39L, the assay gave 17 nM (1 of 6 replicates; controls 0 of 18).
For S25Q/L30G/W56M, the assay gave 21 nM (1 of 6 replicates; controls 0 of 18).
For S33R/R34V/R99Y, the assay gave nd (0 of 6 replicates; controls 0 of 18).
For V29E/Y97E, the assay gave nd (0 of 6 replicates; controls 0 of 18).
For V29T/Y31G, the assay gave 22 nM (5 of 6 replicates; controls 0 of 18).
For S25L/W56D/T59Q/E61L, the assay gave 550 pM (6 of 6 replicates; controls 1 of 18).
For S25F/S26G/S28G/N35V/W56G, the assay gave 820 pM (6 of 6 replicates; controls 1 of 18).
For S26P/L30V/Y31F/N35R/S62A, the assay gave 190 nM (1 of 6 replicates; controls 0 of 18).

A sequence measured in both rounds can read differently, since the two assays cover different ranges. As a blank, each scFv also met three strains without target: over all light chain designs, 4% of these pairings were detected, typically at 430 nM and seldom below 38 nM. The control count says in how many pairings with the empty strains this scFv gave a signal. The parent sequence was in this pool as ten entries: three were never detected, three once, and four in most replicates, with averages from 2.2 nM to 240 nM.